According to PubChem BioAssay (NCI):
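Cultured in 96-well plates, cells were exposed to test compound for 48 hours across five concentrations. GI50 is the concentration that inhibits growth by half. TGI denotes the concentration required for complete inhibition of growth.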

Legend:
Assay in all cases: growth of human tumour cells (NCI), 48 h; in the data active means GI50 below about 0.43 µM; inactive means the rest
[1] = system: TK-10 renal
[2] = system: ACHN renal
[3] = system: OVCAR-3 ovarian
[4] = system: SF-295 CNS
[5] = system: SR leukemia
[6] = system: U251 CNS
[7] = system: IGROV1 ovarian
[8] = system: HT29 colon
[9] = system: NCI-H226 lung
[10] = system: UO-31 renal
[11] = system: HCT-15 colon
[12] = system: T-47D breast
[13] = system: MOLT-4 leukemia
[14] = system: NCI-H522 lung
[15] = system: SNB-75 CNS
[16] = system: SF-268 CNS
[17] = system: SK-MEL-5 melanoma
[18] = system: UACC-257 melanoma
[19] = system: SK-OV-3 ovarian
[20] = system: HOP-62 NSCLC
[21] = system: NCI/ADR-RES ovarian
[22] = system: BT-549 breast
[23] = system: SF-539 CNS
[24] = system: SNB-19 CNS
[25] = system: SK-MEL-28 melanoma
[26] = system: MCF7 breast
[27] = system: RPMI-8226 leukemia
[28] = system: PC-3 prostate
[29] = system: RXF 393 renal
[30] = system: COLO 205 colon
[31] = system: A498 renal
[32] = system: K-562 leukemia
[33] = system: NCI-H23 lung
[34] = system: SK-MEL-2 melanoma
[35] = system: DU-145 prostate
[36] = system: UACC-62 melanoma
[37] = system: NCI-H322M lung
[38] = system: HCT-116 colon
[39] = system: 786-0 renal
[40] = system: HL-60(TB) leukemia
[41] = system: LOX IMVI melanoma
[42] = system: MDA-MB-435
[43] = system: MDA-MB-231 breast
[44] = system: CAKI-1 renal
[45] = system: EKVX NSCLC
[46] = system: M14 melanoma
[47] = system: HS 578T breast
[48] = system: MALME-3M melanoma
[49] = system: A549 NSCLC
[50] = system: MDA-N
[51] = system: SN12C renal
[52] = system: OVCAR-5 ovarian
[53] = system: CCRF-CEM leukemia
[54] = system: OVCAR-4 ovarian
[55] = system: OVCAR-8 ovarian
[56] = system: HOP-92 NSCLC

CCC1C(OC(=O)CC(O)(c2ccccc2)c2ccccc2)C2CCN1CC2 (configuration not stated)
83.5 µM: TGI [18]
> 100 µM: TGI [1] | TGI [2] | TGI [3] | TGI [4] | TGI [5] | TGI [6] | TGI [7] | TGI [8] | TGI [9] | TGI [10] | TGI [11] | TGI [12] | TGI [13] | TGI [14] | TGI [15] | TGI [16] | TGI [17] | TGI [19] | TGI [20] | TGI [21] | TGI [22] | TGI [23] | TGI [24] | TGI [25] | TGI [26] | TGI [27] | TGI [28] | TGI [29] | TGI [30] | TGI [31] | TGI [32] | TGI [33] | TGI [34] | TGI [35] | TGI [36] | TGI [37] | TGI [38] | TGI [39] | TGI [40] | TGI [41] | TGI [42] | TGI [43] | TGI [44] | TGI [45] | TGI [46] | TGI [47] | TGI [48] | TGI [49] | TGI [50] | TGI [51] | TGI [52] | TGI [53] | TGI [54] | TGI [55] | TGI [56]
inactive: GI50 [1] 57.4 µM | GI50 [2] > 100 µM | GI50 [3] > 100 µM | GI50 [4] > 100 µM | GI50 [5] 61.2 µM | GI50 [6] > 100 µM | GI50 [7] > 100 µM | GI50 [8] 56.5 µM | GI50 [9] > 100 µM | GI50 [10] 94.4 µM | GI50 [11] > 100 µM | GI50 [12] > 100 µM | GI50 [13] 53.6 µM | GI50 [14] > 100 µM | GI50 [15] 71.1 µM | GI50 [16] > 100 µM | GI50 [17] 33.3 µM | GI50 [18] 27.8 µM | GI50 [19] > 100 µM | GI50 [20] > 100 µM | GI50 [21] > 100 µM | GI50 [22] > 100 µM | GI50 [23] > 100 µM | GI50 [24] > 100 µM | GI50 [25] > 100 µM | GI50 [26] > 100 µM | GI50 [27] > 100 µM | GI50 [28] 80.5 µM | GI50 [29] 50.9 µM | GI50 [30] 99.6 µM | GI50 [31] > 100 µM | GI50 [32] 83.9 µM | GI50 [33] > 100 µM | GI50 [34] > 100 µM | GI50 [35] > 100 µM | GI50 [36] > 100 µM | GI50 [37] > 100 µM | GI50 [38] > 100 µM | GI50 [39] > 100 µM | GI50 [40] 45.6 µM | GI50 [41] 23.7 µM | GI50 [42] > 100 µM | GI50 [43] 62.6 µM | GI50 [44] > 100 µM | GI50 [45] > 100 µM | GI50 [46] 26.7 µM | GI50 [47] > 100 µM | GI50 [48] > 100 µM | GI50 [49] > 100 µM | GI50 [50] > 100 µM | GI50 [51] > 100 µM | GI50 [52] > 100 µM | GI50 [53] > 100 µM | GI50 [54] > 100 µM | GI50 [55] > 100 µM | GI50 [56] 25.9 µM
